# Source: PubChem BioAssay AID1359 (The Scripps Research Institute Molecular Screening Center, 2008)
# By UniProt entry, the sequences of proteins in these tests, tags left out.
# UniProt P49146, whole entry, looked up: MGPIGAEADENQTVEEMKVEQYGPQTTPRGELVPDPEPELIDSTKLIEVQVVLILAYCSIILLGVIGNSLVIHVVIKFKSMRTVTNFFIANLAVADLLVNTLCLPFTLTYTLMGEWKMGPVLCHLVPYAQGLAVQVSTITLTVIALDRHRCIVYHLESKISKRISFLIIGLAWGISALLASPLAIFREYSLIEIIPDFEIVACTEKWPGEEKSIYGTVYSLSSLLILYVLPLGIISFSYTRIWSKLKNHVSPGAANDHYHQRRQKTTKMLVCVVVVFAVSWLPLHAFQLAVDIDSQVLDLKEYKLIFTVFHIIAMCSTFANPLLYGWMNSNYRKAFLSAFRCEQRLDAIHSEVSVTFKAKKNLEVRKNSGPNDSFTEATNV
# The list shows a part of the results, in another mix than the full data. Activity calls are given as the source filed them. Cut-off read from the data, not from the text of the source: active = activation above about 27%; inactive = the rest.
# Target: Neuropeptide Y receptor type 2 (Homo sapiens) (UniProt P49146)
# Experiment: NPY-Y2 potentiators or agonists, primary screen, cell-based (AID 1359);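 note: cells stimulated with NPY near EC25 plus isoproterenol at EC100; 0% = vehicle plus submaximal agonist and 100% = vehicle plus saturating agonist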
# Settings: cells expressing NPY-Y2, potentiator/agonist read-out; at 3.6 µM; active compounds read high
row,Structure (SMILES),activation
1,Cc1cccc(OCC(=O)OC2CN3CCC2CC3)c1 (centres undefined),inactive: -17.7%
2,O=[As](O)(c1cccc(O)c1)c1cccc(O)c1,inactive: 2.75%
3,O=C(OC1CN2CCC1CC2)c1ccc(Cl)cc1 (centres undefined),inactive: -0.34%
4,O=[As](O)(O)c1cccnc1,inactive: 5.63%
5,COc1cc(C(=O)NCC2(N3CCOCC3)CCCCC2)cc(Cl)c1OC(C)C,inactive: 11.6%
6,CCOP(=O)(Nc1cccc2ccccc12)OCC,inactive: -0.04%
7,COc1cc(C2NCCC3(OCCO3)C2(C)C)cc(OC)c1OC (centres undefined),inactive: 8.44%
8,Cc1ccc(NCCc2c([N+](=O)[O-])cc([N+](=O)[O-])cc2[N+](=O)[O-])cc1,inactive: 22.8%
9,Nc1cccc2c([As](=O)(O)O)cccc12,inactive: 5.27%
10,CCCOP(=S)(Nc1nc(N)cc(=O)[nH]1)OCCC,inactive: -13.4%
11,O=C(O)COc1ccc([As](=O)(O)O)cc1[N+](=O)[O-],inactive: -7.23%
12,Nc1ccccc1[As](=O)(O)c1ccccc1,inactive: -4.19%
13,O=P(Nc1nccs1)(Oc1ccccc1)Oc1ccccc1,inactive: -4.45%
14,O=P(Nc1nccs1)(c1ccccc1)c1nc2ccccc2s1 (centres undefined),inactive: -9.47%
15,CCOP1(=S)c2c(C)nn(CCC#N)c2N=C(c2ccccc2F)N1C (centres undefined),inactive: 0.21%
16,CS(=O)(=O)c1cc([N+](=O)[O-])c2no[n+]([O-])c2c1,inactive: -12.8%
17,CCOP1(=S)c2c(C)nn(CCC#N)c2N=C(c2ccc(F)cc2)N1C (centres undefined),inactive: 8.29%
18,O=[N+]([O-])c1ccc2c(c1)nnn2O,inactive: 4.57%
19,CN(C)C1(CNC(=O)c2ccc(S(C)(=O)=O)cc2)CCCCC1,inactive: -11.6%
20,O=C(/C=C/c1ccccc1)OC1CN2CCC1CC2 (centres undefined),inactive: -25.6%
21,CC1CCC(C(C)C)C(OP(=O)(Nc2ccccn2)c2ccccc2)C1 (centres undefined),inactive: 7.15%
22,Cc1nn(-c2ccccc2)c2c1P(=O)(N1CCOCC1)N(C)C(c1ccccc1)=N2 (centres undefined),inactive: -5.5%
23,Nc1cccc([As](=O)(O)c2ccccc2)c1,inactive: 2.44%
24,Cc1ccc(OCC(=O)OC2CN3CCC2CC3)cc1 (centres undefined),inactive: 9.35%
25,O=[As](O)(c1cccs1)c1cccs1,inactive: 4.67%
26,O=P1(Nc2ccc(Br)cn2)COc2ccccc2OC1,inactive: 10.6%
27,O=P1(Nc2ncccn2)COc2ccccc2OC1,inactive: -3.81%
28,CC(C)(C)C(=O)NC(Sc1ncccn1)C(Cl)(Cl)Cl (centres undefined),inactive: 2.9%
29,Clc1n[nH]nc1-c1nn[nH][15n]1,inactive: 1.4%
